Data taken from ChEMBL document CHEMBL1140033, “Modulating G-protein coupled receptor/G-protein signal transduction by small molecules suggested by virtual screening” (J Med Chem, 2008).

Sequences of proteins named here, by UniProt entry; tags and fusion partners are left off.
UniProt P02699, whole entry: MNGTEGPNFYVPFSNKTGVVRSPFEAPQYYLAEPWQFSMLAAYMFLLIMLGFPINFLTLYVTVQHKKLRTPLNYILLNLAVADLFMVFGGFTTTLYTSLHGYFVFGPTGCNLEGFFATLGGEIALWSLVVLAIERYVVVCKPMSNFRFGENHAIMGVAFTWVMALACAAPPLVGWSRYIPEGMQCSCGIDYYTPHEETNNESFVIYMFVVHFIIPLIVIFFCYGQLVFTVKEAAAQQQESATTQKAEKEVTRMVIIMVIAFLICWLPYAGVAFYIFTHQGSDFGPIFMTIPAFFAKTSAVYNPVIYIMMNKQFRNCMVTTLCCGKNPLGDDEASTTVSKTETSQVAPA

What was measured:
[1] = target: T1, Rhodopsin (Bos taurus, UniProt P02699); experiment: Binding affinity to photoactivated rhodopsin in bovine retinal rod outer-segment membranes assessed as induction of extra receptor MII state stabilization by UV/visible difference spectroscopy
[2] = target: T1, Rhodopsin; experiment: Inhibition of bovine retinal rod outer-segment photoactivated rhodopsin-transducer interaction by transducer release assay

C[C@]12CC[C@H]3[C@@H](CCC4=CC(=O)CC[C@@]43C)[C@@H]1CC[C@@H]2C(=O)COS(=O)(=O)c1ccc(Br)cc1
EC50 [1]: 45 µM | IC50 [2]: 15 µM
